The list shows a part of the results, in another mix than the full data. The source made the active and inactive calls.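 The calls were made as follows: active = GFP response relative to DMSO above a set limit, near screen average plus 3 SD (cut at about 150% in these data); inconclusive = fewer than 70 cells counted for the yeast strain; inactive = the rest.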
Assay: yeast AGP1-GFP level changes, GLN3 branch – cell-based, multiplex flow cytometry, S. cerevisiae, MLPCN library, primary screen (AID 2066);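 also: median GFP channel fluorescence of the gated AGP1 strain per well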
Settings: 3 h, at 10 µM, stronger effect = higher value, GFP as percent of DMSO wells

SMILES | GFP response vs DMSO
CN1CCN(CCOC(=O)C(O)(c2ccccc2)c2ccccc2)CC1 | inactive: 94.1%
COc1ccc(NC2CCN(C(=O)OC(C)(C)C)CC2)cc1 | inactive: 101%
COc1cc(C(=O)NCC2(N3CCCCC3)CCCCC2)ccc1OC(F)F | inactive: 99.4%
O=C(NCC1(N2CCOCC2)CCCCC1)c1cc(=O)[nH]c2ccccc12 | inactive: 95.1%
O=C(NCC1(N2CCCCC2)CCCCC1)c1cccc(C(F)(F)F)c1 | inactive: 104%
O=C(NCC1(N2CCCCC2)CCCCC1)c1cccc([N+](=O)[O-])c1 | inactive: 114%
CCN1CCC(Nc2ccc(Cl)cc2)CC1 | inactive: 96.7%
N#CC1(Nc2ccccc2)CCN(CCc2ccccc2)CC1 | inactive: 101%
O=C(NCC1(N2CCCCC2)CCCCC1)c1ccc(OC(F)F)cc1 | inactive: 102%
CCCOc1ccc(C(=O)NCC2(N(C)C)CCCCC2)cc1OC | inactive: 83.5%
CN1CCC(Nc2cccc(F)c2)CC1 | inactive: 110%
O=C(NCC1(N2CCCCC2)CCCCC1)c1cncc(Br)c1 | inactive: 102%
COc1cc(OC)c(C(=O)NCC2(N(C)C)CCCCC2)cc1OC | inactive: 102%
O=C(NCC1(N2CCOCC2)CCCCC1)c1cc(F)c(F)cc1Cl | inactive: 101%
COc1ccc(CN(CCCl)CCCl)cc1Cl | inactive: 92.8%
CN(C)c1cccc(C(=O)NCC2(N3CCCCC3)CCCCC2)c1 | inactive: 98.8%
CC(C)c1ccc(NC2CCN(C(=O)OC(C)(C)C)CC2)cc1 | inactive: 102%
CCOC(=O)N1CCC(Nc2ccc(OC)cc2)CC1 | inactive: 98%
N#CC1(Nc2ccccc2)CCN(Cc2ccccc2)CC1 | inactive: 116%
O=C(NCC1(N2CCCCC2)CCCCC1)c1ccc(Cl)s1 | inactive: 97.1%
COc1ccc(Cl)cc1C(=O)NCC1(N2CCOCC2)CCCCC1 | inactive: 101%
O=C(NCC1(N2CCOCC2)CCCCC1)c1cc2ccccc2o1 | inactive: 95.6%

SMILES | GFP response vs DMSO
O=C(NCC1(N2CCCCC2)CCCCC1)c1ccc(Cl)nc1 | inactive: 84%
Cc1cc(C)cc(N(C(=O)c2ccccc2)C2CCN(C(=O)OC(C)(C)C)CC2)c1 | inactive: 94.8%
CSc1ccccc1C(=O)NCC1(N2CCCCC2)CCCCC1 | inactive: 105%
O=C(NCC1(N2CCCCC2)CCCCC1)c1ccc(=O)[nH]c1 | inactive: 98.9%
O=C(NCC1(N2CCCCC2)CCCCC1)c1cccs1 | inactive: 108%
COc1ccc(C(=O)NCC2(N3CCCCC3)CCCCC2)cc1 | inactive: 98.8%
CC(C)(C)OC(=O)N1CCC(N(C(=O)c2ccccc2)c2ccc(F)cc2)CC1 | inactive: 13%
COc1ccc(C(=O)NCC2(N3CCCCC3)CCCCC2)c(OC)c1OC | inactive: 94.7%
CCOC(=O)N1CCC(Nc2cccc(C)c2)CC1 | inactive: 101%
COc1cc(C(=O)NCC2(N(C)C)CCCCC2)ccc1OC(F)F | inactive: 74.4%
Cc1ccc(OCC(C)C)c(CN(CCCl)CCCl)c1 | inactive: 106%
O=C(NCC1(N2CCCCC2)CCCCC1)c1ccc(F)cc1 | inactive: 97.3%
COc1ccc(NC2CCN(CCc3ccccc3)CC2)c(OC)c1 | inactive: 105%
CCOC(=O)N1CCC(Nc2ccc(F)cc2)CC1 | inactive: 105%
CCOc1ccc(C)cc1CN(CCCl)CCCl | inactive: 90.9%
O=C(NCC1(N2CCCCC2)CCCCC1)c1ccco1 | inactive: 103%
CN(C)c1ccc(C(=O)NCC2(N3CCCCC3)CCCCC2)cc1 | inactive: 101%
CCN1CCC(Nc2cccc(F)c2)CC1 | inactive: 95.3%
Cc1ccc(C(=O)NCC2(N3CCCCC3)CCCCC2)o1 | inactive: 103%
Fc1ccccc1NC1CCN(Cc2ccccc2)CC1 | inactive: 97%
COc1cc(OC)cc(C(=O)NCC2(N3CCCCC3)CCCCC2)c1 | inactive: 98%
CCCOc1ccc(C)cc1CN(CCCl)CCCl | inactive: 97%

SMILES | GFP response vs DMSO
CN1CCC(Nc2ccc(Cl)cc2)CC1 | inactive: 99.7%
CCC(CO)(C(=O)OC1CN2CCC1CC2)c1ccccc1 (stereo not given) | inactive: 98.1%
COc1cc(OC)cc(C(=O)NCC2(N3CCOCC3)CCCCC2)c1 | inactive: 102%
COc1cccc(C(=O)N(c2cc(C)cc(C)c2)C2CCN(C(=O)OC(C)(C)C)CC2)c1 | inactive: 104%
CCCOc1ccc(C(=O)NCC2(N(C)C)CCCCC2)cc1 | inactive: 94.7%
CC(C)(C)OC(=O)N1CCC(Nc2ccccc2)CC1 | inactive: 93.2%
O=C(O)C1(Nc2ccccc2)CCN(Cc2ccccc2)CC1 | inactive: 97.8%
CCOc1ncccc1C(=O)NCC1(N2CCOCC2)CCCCC1 | inactive: 106%
CN1CCC(Nc2ccc(F)c(Cl)c2)CC1 | inactive: 98.8%
CCc1cc(C(=O)NCC2(N3CCCCC3)CCCCC2)sc1C | inactive: 96.5%
O=C(OC1CN2CCC1CC2)C1c2ccccc2C=Cc2ccccc21 (stereo not given) | inactive: 102%
N/C(=N\O)c1c(N)no[n+]1[O-] | inactive: 99.6%
CCOC(=O)N1CCC(Nc2ccc(C)cc2)CC1 | inactive: 98%
COc1ccc(C(=O)NCC2(N3CCOCC3)CCCCC2)cc1OC | inactive: 95.5%
O=C(NCC1(N2CCOCC2)CCCCC1)c1cc(Br)ccc1Cl | inactive: 95.4%
COc1cc(C(=O)NCC2(N3CCOCC3)CCCCC2)cc(OC)c1C | inactive: 95.3%
c1ccc(CN2CCC(Nc3ccccc3)CC2)cc1 | inactive: 101%
CCCN1CCC(Nc2cc(OC)cc(OC)c2)CC1 | inactive: 97.8%
CN(C)C1(CNC(=O)c2cccc(C#N)c2)CCCCC1 | inactive: 105%
CC(C)(C)OC(=O)N1CCC(N(C(=O)c2ccccc2)c2ccc(Cl)cc2)CC1 | inactive: 105%
N#Cc1ccc(C(=O)NCC2(N3CCCCC3)CCCCC2)cc1 | inactive: 113%

Source: PubChem BioAssay AID2066 (NMMLSC, 2009)
